Earlier results as cited in patent publication US12344584B2, “KCNQ potentiators” (Eli Lilly and Company, priority 2019, dated 2025).

Test system: ALS
Settings: ALS patients; cited from earlier work

Compound: Nc1nc2ccc(OC(F)(F)F)cc2s1 [riluzole]
- increase in survival: 2-3 months
